Assay results reported in paper PMC3711744 (The Journal of neuroscience : the official journal of the …, 2013).

Molecular target: purified mGluR1a-CT (rat, UniProt P23385 841-1199)
Assay: pull-down

binding result: binds
B1: GST-CaMKIIα-CD(L91-S272) (domain or fragment, UniProt P11275 91-272, looked up)
chain: LVTGGELFEDIVAREYYSEADASHCIQQILEAVLHCHQMGVVHRDLKPENLLLASKLKGAAVKLADFGLAIEVEGEQQAWFGFAGTPGYLSPEVLRKDPYGKPVDLWACGVILYILLVGYPPFWDEDQHRLYQQIKAGAYDFPSPEWDTVTPEAKDLINKMLTINPSKRITAAEALKHPWIS
